Experiments:
[1] = Plasma pharmacokinetics of doxorubicin and metabolites after i.v. bolus in wild-type and mdr1a(-/-) mice (HPLC)
Source text: (§1) Blank human plasma was obtained from healthy donors. […] All biological specimens were stored at -20C until analysis. […] However, […]

[2] = Tissue distribution of doxorubicin and metabolites in wild-type and mdr1a(-/-) mice (HPLC)
Source text: as §1

COc1cccc2c1C(=O)c1c(O)c3c(c(O)c1C2=O)C[C@@](O)(C(=O)CO)C[C@@H]3O[C@H]1C[C@H](N)[C@H](O)[C@H](C)O1 [doxorubicin]
Ratio, drug concentration in mdr1a(-/-) vs wild-type mice ([1]; 1 h): 0.9
Ratio, drug concentration in mdr1a(-/-) vs wild-type mice ([1]; 4 h): 0.9
Ratio, drug concentration in mdr1a(-/-) vs wild-type mice ([1]; 24 h): 1.7
Ratio, drug concentration in mdr1a(-/-) vs wild-type mice ([2]; brain, 1 h): 2.8
Ratio, drug concentration in mdr1a(-/-) vs wild-type mice ([2]; brain, 4 h): 2.8
Ratio, drug concentration in mdr1a(-/-) vs wild-type mice ([2]; brain, 24 h): 3.8
Ratio, drug concentration in mdr1a(-/-) vs wild-type mice ([2]; breast, 1 h): 1.1
Ratio, drug concentration in mdr1a(-/-) vs wild-type mice ([2]; breast, 4 h): 1.7
Ratio, drug concentration in mdr1a(-/-) vs wild-type mice ([2]; breast, 24 h): 3.7
Ratio, drug concentration in mdr1a(-/-) vs wild-type mice ([2]; caecum, 1 h): 1.2
Ratio, drug concentration in mdr1a(-/-) vs wild-type mice ([2]; caecum, 4 h): 1.1
Ratio, drug concentration in mdr1a(-/-) vs wild-type mice ([2]; caecum, 24 h): 2.5
Ratio, drug concentration in mdr1a(-/-) vs wild-type mice ([2]; colon, 1 h): 1.2
Ratio, drug concentration in mdr1a(-/-) vs wild-type mice ([2]; colon, 4 h): 1.0
Ratio, drug concentration in mdr1a(-/-) vs wild-type mice ([2]; colon, 24 h): 2.6
Ratio, drug concentration in mdr1a(-/-) vs wild-type mice ([2]; heart, 1 h): 1.1
Ratio, drug concentration in mdr1a(-/-) vs wild-type mice ([2]; heart, 4 h): 1.1
Ratio, drug concentration in mdr1a(-/-) vs wild-type mice ([2]; heart, 24 h): 2.8
Tissue level ([2]; heart, 24 h after i.v. 5 mg kg-1 doxorubicin, mdr1a(-/-) mice): 4.74 nmol g-1 tissue
Ratio, drug concentration in mdr1a(-/-) vs wild-type mice ([2]; kidney, 1 h): 0.9
Tissue level ([2]; kidney, 1 h after i.v. 5 mg kg-1 doxorubicin, wild-type mice): 36.2 nmol g-1 tissue
Ratio, drug concentration in mdr1a(-/-) vs wild-type mice ([2]; kidney, 4 h): 1.0
Ratio, drug concentration in mdr1a(-/-) vs wild-type mice ([2]; kidney, 24 h): 1.6
Ratio, drug concentration in mdr1a(-/-) vs wild-type mice ([2]; liver, 1 h): 2.2
Ratio, drug concentration in mdr1a(-/-) vs wild-type mice ([2]; liver, 4 h): 4.5
Ratio, drug concentration in mdr1a(-/-) vs wild-type mice ([2]; liver, 24 h): 8.1
Ratio, drug concentration in mdr1a(-/-) vs wild-type mice ([2]; lung, 1 h): 1.1
Ratio, drug concentration in mdr1a(-/-) vs wild-type mice ([2]; lung, 4 h): 1.0
Ratio, drug concentration in mdr1a(-/-) vs wild-type mice ([2]; lung, 24 h): 3.8
Ratio, drug concentration in mdr1a(-/-) vs wild-type mice ([2]; muscle, 1 h): 0.9
Ratio, drug concentration in mdr1a(-/-) vs wild-type mice ([2]; muscle, 4 h): 0.8
Ratio, drug concentration in mdr1a(-/-) vs wild-type mice ([2]; muscle, 24 h): 1.4
Ratio, drug concentration in mdr1a(-/-) vs wild-type mice ([2]; ovary, 1 h): 1.3
Ratio, drug concentration in mdr1a(-/-) vs wild-type mice ([2]; ovary, 4 h): 1.4
Ratio, drug concentration in mdr1a(-/-) vs wild-type mice ([2]; ovary, 24 h): 1.2
Ratio, drug concentration in mdr1a(-/-) vs wild-type mice ([2]; small gut, 1 h): 1.2
Ratio, drug concentration in mdr1a(-/-) vs wild-type mice ([2]; small gut, 4 h): 1.3
Ratio, drug concentration in mdr1a(-/-) vs wild-type mice ([2]; small gut, 24 h): 3.7
Ratio, drug concentration in mdr1a(-/-) vs wild-type mice ([2]; spleen, 1 h): 1.1
Ratio, drug concentration in mdr1a(-/-) vs wild-type mice ([2]; spleen, 4 h): 0.9
Ratio, drug concentration in mdr1a(-/-) vs wild-type mice ([2]; spleen, 24 h): 1.8
Ratio, drug concentration in mdr1a(-/-) vs wild-type mice ([2]; stomach, 1 h): 0.9
Ratio, drug concentration in mdr1a(-/-) vs wild-type mice ([2]; stomach, 4 h): 1.5
Ratio, drug concentration in mdr1a(-/-) vs wild-type mice ([2]; stomach, 24 h): 1.8
Ratio, drug concentration in mdr1a(-/-) vs wild-type mice ([2]; uterus, 1 h): 1.3
Tissue level ([2]; uterus, 1 h after i.v. 5 mg kg-1 doxorubicin, mdr1a(-/-) mice): 10.6 nmol g-1 tissue
Ratio, drug concentration in mdr1a(-/-) vs wild-type mice ([2]; uterus, 4 h): 0.7
Ratio, drug concentration in mdr1a(-/-) vs wild-type mice ([2]; uterus, 24 h): 1.9

Reference: PMC2362153, “Increased accumulation of doxorubicin and doxorubicinol in cardiac tissue of mice lacking mdr1a P-glycoprotein” (British Journal of Cancer, 1999)
